Columns and labels:
[1] = biological target: T1, Leukotriene A-4 hydrolase (Homo sapiens, UniProt P09960)
T1 sequence (P09960 whole entry): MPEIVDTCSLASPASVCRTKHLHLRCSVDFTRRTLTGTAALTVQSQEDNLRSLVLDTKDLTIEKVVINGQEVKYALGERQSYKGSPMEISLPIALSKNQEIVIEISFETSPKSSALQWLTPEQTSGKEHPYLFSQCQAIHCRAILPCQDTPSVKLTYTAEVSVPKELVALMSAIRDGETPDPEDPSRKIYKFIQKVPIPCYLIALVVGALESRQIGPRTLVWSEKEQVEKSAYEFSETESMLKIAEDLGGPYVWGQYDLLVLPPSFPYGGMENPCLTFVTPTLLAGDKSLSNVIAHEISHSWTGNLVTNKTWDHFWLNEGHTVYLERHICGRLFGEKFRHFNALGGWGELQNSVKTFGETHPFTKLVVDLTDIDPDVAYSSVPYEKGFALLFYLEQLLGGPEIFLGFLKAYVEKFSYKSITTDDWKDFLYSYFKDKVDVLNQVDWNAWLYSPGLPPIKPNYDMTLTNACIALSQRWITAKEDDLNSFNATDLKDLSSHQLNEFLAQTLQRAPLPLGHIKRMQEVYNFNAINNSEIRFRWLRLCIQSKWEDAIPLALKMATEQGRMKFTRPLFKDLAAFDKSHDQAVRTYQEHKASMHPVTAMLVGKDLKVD

[2] = biological target: T1, Leukotriene A-4 hydrolase; remark: listed apart in the source

| SMILES | IC50 [1] [nM] | IC50 [2] [nM] |
| --- | --- | --- |
| O=C(O)CCCN1CCC[C@@H]1COc1ccc(Oc2ccc(Cl)cc2)cc1 | 33 |  |
| c1ccc(Cc2ccc(OC[C@@H]3CCCN3)cc2)cc1 |  | 244 |
| c1ccc(Cc2ccc(OC[C@H]3CCCN3)cc2)cc1 | 449 |  |

From ChEMBL document CHEMBL1156785, “Discovery of 4-[(2S)-2-{[4-(4-chlorophenoxy)phenoxy]methyl}-1-pyrrolidinyl]butanoic acid (DG-051) as a novel leukotriene A4 hydrolase inhibitor of leukotriene B4 biosynthesis” (J Med Chem, 2010)
